Measured values as given in paper PMC4682846 (PLoS ONE, 2015).

Target: T1, fumarase D (FumD) (Escherichia coli, UniProt Q8X999)
T1 construct: gene fumA

For O=C(O)/C=C/C(=O)O [Fumarate], the Km was 900 ± 100 µM.
